{"sequences": {"note": "Chains of the proteins cited; added tags and fusions are not shown.", "UniProt Q8VD66, whole entry": "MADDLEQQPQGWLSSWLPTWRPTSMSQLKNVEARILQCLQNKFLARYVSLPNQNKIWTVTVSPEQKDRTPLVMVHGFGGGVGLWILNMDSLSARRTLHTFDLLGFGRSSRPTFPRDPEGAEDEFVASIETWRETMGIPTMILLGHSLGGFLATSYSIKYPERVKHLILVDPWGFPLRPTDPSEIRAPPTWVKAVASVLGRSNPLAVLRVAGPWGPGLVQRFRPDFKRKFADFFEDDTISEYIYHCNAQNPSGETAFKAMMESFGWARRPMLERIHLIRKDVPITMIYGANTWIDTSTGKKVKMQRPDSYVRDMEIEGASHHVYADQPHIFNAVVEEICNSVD"}, "source": "PubChem BioAssay AID720543", "about": "(The Scripps Research Institute Molecular Screening Center, 2013)", "note": "Only a part is listed here, and it is no random draw. Some of these compounds have results that are not shown, active ones among them. Calls of active or inactive are those of the source.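 The calls were made as follows: active = inhibition exceeding the mean over every tested compound plus 3 SD (cut at about 30% in these data); inactive = the rest.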", "data": [{"molecular_target": "(Lyso)-N-acylphosphatidylethanolamine lipase (Mus musculus) (UniProt Q8VD66)", "test": "ABHD4 inhibitors, primary screen, biochemical, fluorescence polarization, mouse (AID 720543);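 also: 0% = plate median of compound wells and 100% = S159A mutant with DMSO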", "conditions": "purified mABHD4, FP-Rh probe fluorescence polarization; at 8.92 µM; hits give high values", "procedure,_shortened": "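assay system = mABHD4 protein | compound dosing = single nominal dose of 8.92 µM, 0.89% DMSO final | read-out basis = percent inhibition of probe binding, normalized to plate controls | schedule = Enzyme–compound pre-incubation 45 min, then probe 60 min, both 25 °C | detection = fluorescence polarization, excitation 525 nm, emission 598 nm, BODIPY TMR filters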", "values": [{"compound": "CN(C)C1(CNC(=O)c2ccc(Br)cc2)CCCCC1", "inhibition": "inactive: 4.5%"}, {"compound": "COc1cc(C(=O)NCC2(N(C)C)CCCCC2)c([N+](=O)[O-])cc1OC", "inhibition": "inactive: 1.13%"}, {"compound": "COc1cccc(C(=O)NCC2(N3CCCCC3)CCCCC2)c1", "inhibition": "inactive: -0.75%"}, {"compound": "COc1ccc(Cl)cc1C(=O)NCC1(N(C)C)CCCCC1", "inhibition": "inactive: -3.33%"}, {"compound": "O=C(NCC1(N2CCCCC2)CCCCC1)c1cccc(Cl)c1", "inhibition": "inactive: -2.48%"}, {"compound": "O=C(OC1CN2CCC1CC2)C(CO)(c1ccccc1)c1ccccc1", "note": "(stereo unspecified)", "inhibition": "inactive: -0.47%"}, {"compound": "COc1ccc(Br)c(C(=O)NCC2(N3CCCCC3)CCCCC2)c1", "inhibition": "inactive: -3.5%"}, {"compound": "C=C(C)C#CC(O)(C(=O)OC1CCN(C)CC1)c1ccccc1", "note": "(stereo unspecified)", "inhibition": "inactive: -8.8%"}, {"compound": "CN(C)c1cccc(C(=O)NCC2(N(C)C)CCCCC2)c1", "inhibition": "inactive: -2.57%"}, {"compound": "CC(C)Oc1ccc(C(=O)NCC2(N(C)C)CCCCC2)cc1", "inhibition": "inactive: -0.44%"}, {"compound": "O=C(OCCN1CCCC1)C(O)(c1ccccc1)c1ccccc1", "inhibition": "inactive: -30%"}, {"compound": "O=C(NCC1(N2CCCCC2)CCCCC1)c1cc([N+](=O)[O-])ccc1Cl", "inhibition": "inactive: -0.66%"}, {"compound": "CN1[C@@H]2CC[C@H]1CC(OC(=O)C(O)(c1ccccc1)c1ccccc1)C2", "note": "(stereo partly specified)", "inhibition": "inactive: 2.41%"}, {"compound": "CC(C)N1C(=O)CC2(CCN(CCOC(=O)C(O)(c3ccccc3)c3ccccc3)CC2)C1=O", "inhibition": "inactive: 6.32%"}, {"compound": "CCN(CC)CC(C)C(C)OC(=O)C(O)(c1ccccc1)c1ccccc1", "note": "(stereo unspecified)", "inhibition": "inactive: 6.9%"}, {"compound": "COc1cc(SC)ccc1C(=O)NCC1(N(C)C)CCCCC1", "inhibition": "inactive: 2.38%"}, {"compound": "Cc1ccc(C(=O)NCC2(N3CCCCC3)CCCCC2)cc1", "inhibition": "inactive: -0.92%"}, {"compound": "Cc1ccccc1C(=O)NCC1(N2CCCCC2)CCCCC1", "inhibition": "inactive: 3.48%"}, {"compound": "CN(C)C1CCCC1OC(=O)C(O)(c1ccccc1)c1ccccc1", "note": "(stereo unspecified)", "inhibition": "inactive: 3.26%"}, {"compound": "CN(C)c1ccc(C(=O)NCC2(N(C)C)CCCCC2)cc1", "inhibition": "inactive: 2.08%"}, {"compound": "C=CCN1CCN(CCOC(=O)C(O)(c2ccccc2)c2ccccc2)CC1", "inhibition": "inactive: -2.02%"}, {"compound": "O=C(NCC1(N2CCCCC2)CCCCC1)c1cc(F)c(F)cc1Cl", "inhibition": "inactive: -6%"}, {"compound": "Cc1cc(C(=O)NCC2(N3CCCCC3)CCCCC2)ccc1[N+](=O)[O-]", "inhibition": "inactive: -0.53%"}, {"compound": "CCN1CCCC(OC(=O)C2(O)c3ccccc3C=Cc3ccccc32)C1", "note": "(stereo unspecified)", "inhibition": "inactive: -7.59%"}, {"compound": "O=C(NCC1(N2CCCCC2)CCCCC1)c1cccc(Br)c1", "inhibition": "inactive: 9.09%"}, {"compound": "COc1ccc(C(=O)NCC2(N(C)C)CCCCC2)cc1", "inhibition": "inactive: 6.76%"}]}]}
